The results in this text go back to paper PMC8640222.

Test [1] deals with cell-surface glycoprotein (csg), S-layer protein of Haloferax volcanii (Haloferax volcanii) (UniProt P25062). Kind of test: cryo-EM structure; single-particle cryo-EM of csg pentamers reconstituted from purified csg (2.5 mg/mL) with 1.5-1.75 mM HoCl3, on ice 2 hours; 3.9 Å.
Test [2] has the same target. Kind of test: cryo-EM structure; cryo-ET and subtomogram averaging of the native S-layer on vesicles purified from H. volcanii cultures; hexamer 8.0 Å, pentamer 11.5 Å.
Test [3] has the same target. Kind of test: cryo-EM structure; single-particle cryo-EM of two-dimensional S-layer sheets reconstituted from purified csg (3.2 mg/mL) with 15 mM CaCl2, on ice 25 min; 3.5 Å; hexameric repeating unit and lattice interfaces.
Test [4] shares this target. Kind of test: cryo-EM structure; cryo-ET and subtomogram averaging of in vitro reconstituted inverted S-layer tubes (purified csg with 15 mM CaCl2); 15.8 Å.
The target is the same in test [5]. Description: cryo-EM structure; cryo-ET and subtomogram averaging (lattice maps) of the S-layer on whole H. volcanii cells.
Test [6] shares this target. Kind of test: cryo-EM structure; cryo-ET and subtomogram averaging of the native S-layer on vesicles purified from H. volcanii cultures; hexamer 8.0 Å, pentamer 11.5 Å. The source holds these as a separate data set.

For “cell-surface glycoprotein (csg), S-layer protein of Haloferax volcanii (from UniProt P25062 35-803) (natural protein)”, the stoichiometry N was found to be 5 in test [1]; 6 in test [2]; 6 in test [3]; 6 in test [4]; 5 in test [5]; 5 in test [6].
